# Measured values as given in US20140107143A1, “QUATERNARY OPIOID CARBOXAMIDES” (Rensselaer Polytechnic Institute, priority 2007, published 2014).
# The chains behind the UniProt entries cited, without tags or fusion partners.
# UniProt P35372, whole entry: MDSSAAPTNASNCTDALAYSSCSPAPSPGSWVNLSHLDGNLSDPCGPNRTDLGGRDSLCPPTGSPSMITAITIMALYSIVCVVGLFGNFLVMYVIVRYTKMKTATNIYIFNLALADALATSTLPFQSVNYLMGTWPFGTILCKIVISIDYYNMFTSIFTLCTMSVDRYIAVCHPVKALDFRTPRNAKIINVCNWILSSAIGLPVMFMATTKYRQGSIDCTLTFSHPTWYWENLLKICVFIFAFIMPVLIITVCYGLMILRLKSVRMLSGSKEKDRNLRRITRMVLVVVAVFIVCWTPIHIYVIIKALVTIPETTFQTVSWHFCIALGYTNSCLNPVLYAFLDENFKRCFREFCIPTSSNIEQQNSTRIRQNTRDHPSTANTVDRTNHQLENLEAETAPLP
# Target: human μ opioid receptor (Homo sapiens, UniProt P35372)
# Assay: [35S]GTPγS binding assay, mu (compound alone / with DAMGO)
compound,measurement,value
"C[N+]1(CC2CC2)CC[C@]23CC(=O)CC[C@@]2(O)[C@H]1Cc1ccc(C(N)=O)c(O)c13 (stereo partly shown) [Compound 6, 3-Carboxamido-4-hydroxy-naltrexone methiodide]",agonist properties at the μ opioid receptor,did not display any agonist properties
